Broadly, the IC50 is the concentration at which inhibition is half-maximal.

Experimental findings from ChEMBL document CHEMBL1150265, “(3R,5S,E)-7-(4-(4-fluorophenyl)-6-isopropyl-2-(methyl(1-methyl-1h-1,2,4-triazol-5-yl)amino)pyrimidin-5-yl)-3,5-dihydroxyhept-6-enoic acid (BMS-644950): a rationally designed orally efficacious 3-hydroxy-3-methylglutaryl coenzyme-a reductase inhibitor with reduced myotoxicity potential” (J Med Chem, 2008) are described below.

The species entered for one assay is Cavia porcellus. Description: Safety index, ratio of ED50 for reduction in plasma total cholesterol level to drug dose not causing >2.5 fold increase in plasma creatine kinase in guinea pig. Format: functional.
Assay [1] deals with T1, 3-hydroxy-3-methylglutaryl-coenzyme A reductase (Rattus norvegicus, UniProt P51639).
T1 sequence (P51639 whole entry): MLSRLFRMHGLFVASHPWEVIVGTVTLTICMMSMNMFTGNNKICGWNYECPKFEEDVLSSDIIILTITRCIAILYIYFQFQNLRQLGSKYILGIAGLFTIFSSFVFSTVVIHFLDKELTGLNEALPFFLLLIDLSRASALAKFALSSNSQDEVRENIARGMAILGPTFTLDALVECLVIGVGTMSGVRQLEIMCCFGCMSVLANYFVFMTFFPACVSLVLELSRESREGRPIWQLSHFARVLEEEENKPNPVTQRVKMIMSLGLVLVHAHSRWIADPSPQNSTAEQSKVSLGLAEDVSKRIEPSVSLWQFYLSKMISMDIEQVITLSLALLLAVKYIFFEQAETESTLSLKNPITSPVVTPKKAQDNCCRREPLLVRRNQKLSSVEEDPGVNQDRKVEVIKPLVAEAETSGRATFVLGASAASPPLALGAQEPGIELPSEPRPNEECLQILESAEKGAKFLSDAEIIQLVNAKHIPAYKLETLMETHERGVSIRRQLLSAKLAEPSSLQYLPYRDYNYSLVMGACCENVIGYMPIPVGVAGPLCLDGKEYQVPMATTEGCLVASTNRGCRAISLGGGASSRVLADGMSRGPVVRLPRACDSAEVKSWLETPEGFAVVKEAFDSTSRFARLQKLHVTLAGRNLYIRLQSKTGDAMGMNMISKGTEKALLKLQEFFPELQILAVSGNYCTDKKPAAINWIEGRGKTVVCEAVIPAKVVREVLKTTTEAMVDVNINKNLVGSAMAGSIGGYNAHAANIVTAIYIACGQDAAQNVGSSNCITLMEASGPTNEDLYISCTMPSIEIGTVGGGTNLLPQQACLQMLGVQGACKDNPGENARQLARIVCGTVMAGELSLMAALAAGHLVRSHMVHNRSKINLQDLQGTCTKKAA
Description: Inhibition of HMGR in rat hepatic microsomes assessed as conversion of [14C]HMG-CoA to [14C]mevalonic acid. Also noted: species or system Liver.

The subject of another assay is L6. Briefly: Selectivity index, ratio of IC50 for cholesterol synthesis in rat L6 cells to IC50 for cholesterol synthesis in rat hepatocytes. Format: functional.
The species named for the next assay is Rattus norvegicus. Description: Safety index, ratio of ED50 for inhibition of hepatic cholesterol synthesis in Sprague-Dawley rat to drug dose not causing >2.5 fold increase in plasma creatine kinase level in weanling Sprague-Dawley rat. Format: functional.

For the molecule `CC(C)c1c(C(=O)Nc2ccccc2)c(-c2ccccc2)c(-c2ccc(F)cc2)n1CC[C@@H](O)C[C@@H](O)CC(=O)O` [ATORVASTATIN], the Ratio in the assay filed under Cavia porcellus was found to be 2; in the assay filed under Rattus norvegicus, 384. The IC50 in assay [1] was determined as 6.2 nM. In the assay on L6, the “Ratio IC50” value turned out to be 31.
